# Experimental data taken from PubChem BioAssay AID485346 (Sanford-Burnham Center for Chemical Genomics, 2010).
# By UniProt entry, the sequences of proteins in these tests, tags left out. Where a name states a change or a piece, a line headed by the entry shows the natural chain unless it says otherwise.
# UniProt O15151: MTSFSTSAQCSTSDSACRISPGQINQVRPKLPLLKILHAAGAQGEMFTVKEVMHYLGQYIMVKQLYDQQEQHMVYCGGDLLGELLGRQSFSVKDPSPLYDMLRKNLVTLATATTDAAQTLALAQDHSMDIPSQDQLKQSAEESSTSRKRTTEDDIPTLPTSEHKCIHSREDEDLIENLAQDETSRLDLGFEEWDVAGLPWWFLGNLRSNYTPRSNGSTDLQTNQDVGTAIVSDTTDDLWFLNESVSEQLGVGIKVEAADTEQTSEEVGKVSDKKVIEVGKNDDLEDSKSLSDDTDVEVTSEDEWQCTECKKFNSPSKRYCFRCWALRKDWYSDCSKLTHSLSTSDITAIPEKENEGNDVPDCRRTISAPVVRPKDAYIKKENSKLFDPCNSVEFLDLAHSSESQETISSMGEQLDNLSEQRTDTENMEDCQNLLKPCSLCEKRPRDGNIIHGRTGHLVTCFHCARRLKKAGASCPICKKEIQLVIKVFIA
# UniProt Q00987, whole entry, looked up: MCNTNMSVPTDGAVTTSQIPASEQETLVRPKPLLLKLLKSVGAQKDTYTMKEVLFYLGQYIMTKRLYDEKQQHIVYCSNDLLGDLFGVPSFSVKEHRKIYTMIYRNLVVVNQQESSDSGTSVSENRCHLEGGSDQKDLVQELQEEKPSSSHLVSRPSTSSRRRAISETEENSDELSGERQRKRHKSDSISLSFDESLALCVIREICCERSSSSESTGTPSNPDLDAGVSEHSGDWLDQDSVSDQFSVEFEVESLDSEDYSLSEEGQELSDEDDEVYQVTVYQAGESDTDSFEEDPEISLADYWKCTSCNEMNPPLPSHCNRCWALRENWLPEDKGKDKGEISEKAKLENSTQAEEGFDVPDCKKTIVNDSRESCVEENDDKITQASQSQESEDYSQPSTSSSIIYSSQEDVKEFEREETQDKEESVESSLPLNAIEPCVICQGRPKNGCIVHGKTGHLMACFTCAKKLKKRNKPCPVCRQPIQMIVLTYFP
# The list shows a part of the results, in another mix than the full data. The source made the active and inactive calls.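 The calls were made as follows: active = inhibition of at least 50% at 8 µM in the primary screen; inactive = the rest.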
# Target: Protein Mdm4 (Homo sapiens) + E3 ubiquitin-protein ligase Mdm2 (Homo sapiens) (UniProt O15151+Q00987)
# Test: disruptors of Mdm2/MdmX RING complex – cell-based, luminescence, split luciferase, SaOS-2, uHTS, primary screen (AID 485346)
# Details: SaOS-2 split-luciferase Mdm2/MdmX complementation, at 8 µM, active compounds read high
row,Compound,inhibition
1,COc1ccc(N/C(=N/P(=O)(N2CCOCC2)N2CCOCC2)N2CCOCC2)cc1,inactive: -0.746%
2,COc1cc(I)ccc1[As](=O)(O)O,inactive: 3.96%
3,COc1ccc2nc(NP(=O)(c3ccccc3)c3ccccc3)sc2c1,inactive: 19.1%
4,Cc1c2c(nc3ccccc13)SC(C(Cl)Cl)C2 (stereo unspecified),inactive: 11.7%
5,Cc1cc(=O)[nH]c(N[N+](=O)[O-])n1,inactive: -25.6%
6,O=C(OC1CN2CCC1CC2)C12CC3CC(CC(C3)C1)C2 (stereo unspecified),inactive: 1.09%
7,O=[N+]([O-])c1cc([N+](=O)[O-])c(-c2ccn[nH]2)s1,inactive: 41%
8,CC(C)NC(=O)NP(=O)(Oc1ccccc1)Oc1ccccc1,inactive: -19.2%
9,CCN(CC)C(=S)SC(NC=O)C(Cl)(Cl)Cl (stereo unspecified),inactive: 27.2%
10,O=C(OC1CN2CCC1CC2)c1cccc2[nH]cnc12 (stereo unspecified),inactive: -2.03%
11,ClCCSc1nnc(-c2cccnc2)o1,inactive: -20.3%
12,CC(C)c1ccc(OP(=O)(Nc2ccccn2)Oc2ccccc2F)cc1 (stereo unspecified),inactive: -4.67%
13,Cc1ccc(OP(=O)(Nc2ccc([N+](=O)[O-])cn2)Oc2ccc(C)cc2)cc1,inactive: -0.498%
14,Cc1ccc2nc3c(c(C)c2c1)CC(C(Cl)Cl)S3 (stereo unspecified),inactive: -17.8%
15,COc1cc(C(=O)NCC2(N3CCOCC3)CCCCC2)ccc1OCC(C)C,inactive: 10.6%
16,C[As](=O)(O)c1cccc(C(=O)O)c1,inactive: 17.6%
17,O=[As](O)(c1ccc(O)cc1)c1ccccc1O,inactive: -0.49%
18,Cc1cc(SC(NC=O)C(Cl)(Cl)Cl)ncn1 (stereo unspecified),inactive: 2.14%
19,O=P(Nc1ccccn1)(c1cccc2ccccc12)c1cccc2ccccc12,inactive: -33.2%
20,CCOC(=O)Nc1cccc([As](=O)(O)O)c1,inactive: 8.26%
21,Cc1cc(SC(NC(=O)c2ccccc2)C(Cl)(Cl)Cl)nc(C(C)C)n1 (stereo unspecified),inactive: 2.88%
22,CCCCOc1ccc(C(=O)NCC2(N3CCCCC3)CCCCC2)cc1OC,inactive: 1.76%
23,CCOC(=O)Nc1ccc([As](=O)(O)O)c(O)c1,inactive: -19.2%
24,CCC(C)N(CC(C)C)C(=S)SC(NC(C)=O)C(Cl)(Cl)Cl (stereo unspecified),inactive: 9.41%
25,O=C(OC1CN2CCC1CC2)c1cccc([N+](=O)[O-])c1 (stereo unspecified),inactive: -20.4%
26,CCOC(=O)c1ccc(NC(=O)C(C)(CCl)SC)cc1 (stereo unspecified),inactive: -1.72%

row,Compound,inhibition
1,O=C(Nc1ccncc1[N+](=O)[O-])c1ccc([N+](=O)[O-])cc1[N+](=O)[O-],inactive: 30%
2,O=C(COc1ccccc1)OC1CN2CCC1CC2 (stereo unspecified),inactive: 21%
3,COP1(=S)c2c(C)nn(CCC#N)c2N=C(c2ccc(F)cc2)N1C (stereo unspecified),inactive: 20%
4,CN(C(=O)Cc1ccc(Cl)c(Cl)c1)[C@@H]1CCCC[C@H]1N1CCCC1,inactive: 13.5%
5,CC(C)/C=N\N=C(\N)N[N+](=O)[O-],inactive: 13.3%
6,CC1(CBr)Cn2c(nc3ccccc3c2=O)S1 (stereo unspecified),inactive: 3.73%
7,O=[As](O)(c1ccccc1Br)c1ccccc1Br,inactive: -1.1%
8,COc1ccccc1CNC(=O)COC(=O)C(O)(c1ccccc1)c1ccccc1,inactive: 9.87%
9,CC(C)(C)C(=O)NC(Sc1ncccn1)C(Cl)(Cl)Cl (stereo unspecified),inactive: 8.11%
10,Clc1n[nH]nc1-c1nn[nH][15n]1,inactive: -16.1%
11,CCOP(=O)(NC(=NC(C)c1ccccc1)NC(C)c1ccccc1)OCC (stereo unspecified),inactive: -5.51%
12,CCC1=CC2Cc3nc4ccc(Cl)cc4c(N)c3C(C1)C2 (stereo unspecified),active: 83.6%
13,O=P1(Nc2ccccn2)COc2ccccc2OC1,inactive: 1.07%
14,CCOP(=O)(Nc1ccc(C)cn1)OCC,inactive: 32.5%
15,CN(CCCl)Cc1cc(Cl)c(NC2=NCCN2)c(Cl)c1,inactive: -7.24%
16,Nc1cccc([As](=O)(O)c2ccccc2)c1,inactive: 19.2%
17,Cc1ccc(OCC(=O)OC2CN3CCC2CC3)cc1 (stereo unspecified),inactive: -4.94%
18,O=[As](O)(c1cccs1)c1cccs1,inactive: 10.5%
19,NS(=O)(=O)c1cccc(NC(=O)COC(=O)C(O)(c2ccccc2)c2ccccc2)c1,inactive: -21%
20,O=P1(Nc2ccc(Br)cn2)COc2ccccc2OC1,inactive: 2.05%
21,O=P1(Nc2ncccn2)COc2ccccc2OC1,inactive: -37.9%
22,CN(C)C1(CNC(=O)c2ccc(S(C)(=O)=O)cc2)CCCCC1,inactive: -19.5%
23,O=C(/C=C/c1ccccc1)OC1CN2CCC1CC2 (stereo unspecified),inactive: 23.7%
24,Cc1ccc(C(=O)OC2CN3CCC2CC3)cc1 (stereo unspecified),inactive: 7.3%
25,CC1CCC(C(C)C)C(OP(=O)(Nc2ccccn2)c2ccccc2)C1 (stereo unspecified),inactive: 32.2%
26,Cc1nn(-c2ccccc2)c2c1P(=O)(N1CCOCC1)N(C)C(c1ccccc1)=N2 (stereo unspecified),inactive: 12%

row,Compound,inhibition
1,CN(C(=O)Cc1ccccc1)[C@@H]1CC[C@]2(CCCO2)C[C@H]1N1CCCC1,inactive: -9.27%
2,CCOP1(=S)c2c(C)nn(CCC#N)c2N=C(c2ccc(F)cc2)N1C (stereo unspecified),inactive: 5.51%
3,N#CCCN(C(=O)COC(=O)C(O)(c1ccccc1)c1ccccc1)c1ccc(F)cc1,inactive: -9.25%
4,CN(C(=O)Cc1ccc(Cl)c(Cl)c1)[C@H]1CC[C@@]2(CCCO2)C[C@@H]1N1CCCC1,inactive: 11.3%
5,O=[N+]([O-])c1ccc2c(c1)nnn2O,inactive: 7.8%
6,CN(C)C(=O)c1cc([N+](=O)[O-])cc2c1-c1c(cc([N+](=O)[O-])cc1[N+](=O)[O-])C2=O,active: 82.1%
7,NC(=O)Nc1ccc([As](=O)(O)O)cc1,inactive: 7.1%
8,O=C(O)COc1ccc([As](=O)(O)O)cc1[N+](=O)[O-],inactive: -10.7%
9,Nc1ccccc1[As](=O)(O)c1ccccc1,inactive: -2.66%
10,O=P(Nc1nccs1)(Oc1ccccc1)Oc1ccccc1,inactive: -19.8%
11,O=P(Nc1nccs1)(c1ccccc1)c1nc2ccccc2s1 (stereo unspecified),inactive: 13.5%
12,CCOP1(=S)c2c(C)nn(CCC#N)c2N=C(c2ccccc2F)N1C (stereo unspecified),inactive: -3.27%
13,CS(=O)(=O)c1cc([N+](=O)[O-])c2no[n+]([O-])c2c1,inactive: -0.415%
14,CCOP(=O)(Nc1cccc2ccccc12)OCC,inactive: -2.28%
15,COc1cc(C2NCCC3(OCCO3)C2(C)C)cc(OC)c1OC (stereo unspecified),inactive: 13.6%
16,Cc1ccc(NCCc2c([N+](=O)[O-])cc([N+](=O)[O-])cc2[N+](=O)[O-])cc1,inactive: 10.6%
17,CCCOP(=S)(Nc1nc(N)cc(=O)[nH]1)OCCC,inactive: 12.6%
18,Cc1cccc(OCC(=O)OC2CN3CCC2CC3)c1 (stereo unspecified),inactive: 13.2%
19,O=[As](O)(c1cccc(O)c1)c1cccc(O)c1,inactive: -6.09%
20,O=C(OC1CN2CCC1CC2)c1ccc(Cl)cc1 (stereo unspecified),inactive: 19.9%
21,CS(=O)(=O)c1ccc(Cl)c(NC(=O)COC(=O)C(O)(c2ccccc2)c2ccccc2)c1,inactive: 22%
22,O=[As](O)(O)c1cccnc1,inactive: -12.3%
23,COc1cc(C(=O)NCC2(N3CCOCC3)CCCCC2)cc(Cl)c1OC(C)C,inactive: -6.88%
24,CC(=O)Nc1ccc(Oc2c([N+](=O)[O-])cc([N+](=O)[O-])cc2[N+](=O)[O-])cc1,inactive: 18.4%
25,CC(=O)Nc1ccc([As](=O)(O)O)c(O)c1,inactive: -4.3%
26,C[C@H]1OP(=O)(Oc2ccccc2)C[C@@H]2O[C@@H]21 (stereo partly specified),inactive: 7.99%

row,Compound,inhibition
1,C[C@@H]1C=CCP(=O)(Oc2ccccc2)O1 (stereo partly specified),inactive: 1.43%
2,Cc1ccccc1CN(C)C(=O)COC(=O)C(O)(c1ccccc1)c1ccccc1,inactive: -10.1%
3,CC(=O)c1ccc(N2CC2c2ccncc2)cc1 (stereo unspecified),inactive: 0.744%
4,CC(C)(C)C(=O)NC(Sc1ccccc1)C(Cl)(Cl)Cl (stereo unspecified),inactive: 10.3%
5,CCOc1ccc(C2=NCC(CBr)S2)cc1 (stereo unspecified),inactive: -18%
6,O=P1(Nc2nc3ccc(Cl)cc3s2)COc2ccccc2O1 (stereo unspecified),inactive: 22.7%
7,CN(C)C(=O)Oc1noc2ccccc12,inactive: 16.7%
8,CC(NC(=O)COC(=O)C(O)(c1ccccc1)c1ccccc1)c1ccccc1 (stereo unspecified),inactive: -0.036%
9,Cc1ccccc1OP(=O)(Nc1ccccn1)Oc1ccccc1C,inactive: 15.6%
10,CCC(=O)N1C2C3N(C(=O)CC)C1C1N(C(=O)CC)C(C(N1C(=O)CC)N3C(=O)CC)N2C(=O)CC,inactive: -1.29%
11,O=C(OC1CN2CCC1CC2)c1ccccc1 (stereo unspecified),inactive: -5.84%
12,CC(=O)NC(SC(=S)N(CC(C)C)CC(C)C)C(Cl)(Cl)Cl (stereo unspecified),inactive: 5.17%
13,Cc1ccc(OP(=O)(Nc2ccccn2)Oc2ccc(C)cc2)cc1,inactive: -3.33%
14,COC(=O)c1cc2c(s1)N=C(c1ccccc1)N(C)P2(=O)N1CCOCC1 (stereo unspecified),inactive: 6.49%
15,Cc1ccc(NP(=O)(Oc2cccc(C)c2)Oc2cccc(C)c2)nc1,inactive: 28.2%
16,CCOC(=O)NC(Sc1ccccc1)C(Cl)(Cl)Cl (stereo unspecified),inactive: 3.01%
17,c1ccc(-c2nn[nH]n2)c(-c2nn[nH]n2)c1,inactive: -12.7%
18,O=C(NC1CCS(=O)(=O)C1)NP(=S)(Oc1ccccc1)Oc1ccccc1 (stereo unspecified),inactive: 3.17%
19,CCNC(=S)/N=C(\N)N[N+](=O)[O-],inactive: -12.4%
20,O=C(OC1CN2CCC1CC2)c1cccc(Cl)c1 (stereo unspecified),inactive: 3.46%
21,C(Cc1nn[nH]n1)Cc1nn[nH]n1,inactive: 2.1%
22,Nc1ccc([As](=O)(O)c2ccc([N+](=O)[O-])cc2)cc1,inactive: 10.2%
23,O=[As](O)(c1ccccc1)c1ccc(O)cc1,inactive: -1.62%
